Reference: patent US20220249674A1, “BIOACTIVE SAPONIN LINKED TO A FUNCTIONAL MOIETY” (priority 2019, published 2022)

What was measured:
SK-BR-3 cells = test: Cell viability assay (MTS), targeted 2-component system; type: cell-based; settings: SKBR3; conjugate titration with fixed 50 μM Trastuzumab-Saporin (FIG. 53)
Procedure: (§1) Cells were seeded in a 96 well plate at 5.000-10.000 c/w in 100 μL/well and incubated overnight at 37° C. […] The media was removed from the cell culture plate and replaced by 180 μL culture media, followed by the addition of 20 μL treatment-mix/well. […] In the case that endosomal acidification inhibitors (chloroquine (Sigma Aldrich) or bafilomycin A1 (Enzo Life Sciences)) were used, the cell culture media in step 1 of treatment was replaced by 180 μL media containing 1 μM chloroquine or 0.2 μM bafilomycin A1. The plate was incubated for 1 hour at 37° C., before the 10× treatment-mix samples were added. The remaining incubation and treatment steps were performed according to standard procedures known in the field.

[1] = monkeys; versus unconjugated DM1; cited from earlier work
A431 cells = type: cell-based, human; settings: high EGFR / low HER2 (FIG. 10)
Procedure: as §1

human A431 tumor cells = test: A431 xenograft tumor model; type: in vivo; settings: Balb/c nude mice
Procedure: Female Balb/c nude mice were injected subcutaneously with a suspension of human A431 tumor cells. Under the skin of the mice, a human epidermal carcinoma developed in the xenograft animal tumor model. After injection of the tumor cells, the xenograft tumor was allowed to develop to a size of approximately 170-180 mm^3. The A431 tumor cells have the following characteristics: high EGFR expressors, medium CD71 expressors, low HER2 expressors.
In Table 13, the results of the treatment of control mice and tumor-bearing mice are presented. Tumor-bearing mice were treated with the indicated antibodies directed to either human Her2/neu, human EGFR, or human CD71, which are cell-surface receptors on the xenograft tumor. Cetuximab was conjugated with the endosomal escape enhancing saponin SO1861. The ADCs trastuzumab-saporin and anti-CD71 mAb (IgG)-saporin were tested for their tumor-attacking efficacy in the mice, measured as tumor volume in time after start of the treatment with the ADCs. The dose of the ADCs was sub-optimal in the tumor model. That is to say, from previous experiments, it was established at which sub-optimal dose of the ADCs no tumor-regression or arrest of tumor growth would be observable.

In the case of “Trastuzumab-SO1861 (DAR 2.1): labile bond between the saponin and the antibody”, the “cell killing (in words)” value (SK-BR-3 cells) is reported as “also show cell killing effects”.

For “Trastuzumab-(S)-SO1861: stable bond between SO1861 (carboxylic acid group) and the antibody”, the “cell killing (in words)” value (SK-BR-3 cells) was “efficient cell killing”.

For “T-DM1: Trastuzumab-emtansine (Kadcyla), carrying ~3.5 DM1 toxin molecules per antibody”, the “enhancement of the tolerable dose of DM1” value [1] is given as “at least two-fold” and the “cell killing (in words)” value (A431 cells) is given as “kills cells at nanomolar concentrations; also recorded: not effective at such low toxin concentrations”.

In the case of “Cetuximab-SO1861: monoclonal antibody recognizing and binding EGFR, conjugated to the saponin SO1861; cleavable hydrazone linker”, the “outcome (death/euthanasia or survival)” value (human A431 tumor cells) is reported as “death/euthanasia” and the “tumor size (volume)” value (human A431 tumor cells; about 170-180 mm^3 at start, sub-optimal ADC dose) is reported as 2000 mm^3.

In the case of “Cetuximab: immunoglobulin binding to EGFR”, the “outcome (death/euthanasia or survival)” value (human A431 tumor cells) is reported as “(death/euthanasia)”.

With “Trastuzumab-SO1861: monoclonal antibody recognizing and binding HER2, conjugated to the saponin SO1861; cleavable hydrazone linker” the “cell killing (in words)” value (SK-BR-3 cells) was “efficient cell killing”.

Entries after “also recorded” stand apart in the source; their conditions may differ.
